# This is a sample that favours compounds with a hit; in the whole collection about 1.3% have one here.
# GSIS activator = GLuc luminescence reporter in INS-1E cells, primary screen for activators of glucose-dependent secretion of insulin; activation, % at 16.6 µM; AID 743287, 2014; INS-1E GLuc reporter insulin secretion, 2-3 h; 370,000 tested, 0.61% active;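 active = lowest replicate activation of at least 40%, so every replicate reaches that level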;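 also: 0% = median of neutral control wells and 100% = median of IBMX positive control wells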
# SR-BI uptake up = activators of SR-BI mediated DiI-HDL uptake, primary screen, ldlA[mSR-BI] CHO cells, DiI fluorescence | 3 h; 100 = double the neutral-control signal | activation, % at 12.5 µM | 320,000 tested, 0.096% active;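 active = mean replicate activation of at least 60% and every replicate at or above 60%; inconclusive = mean or all-replicate condition met, but not both; inactive = mean below 60% and not all replicates reaching 60%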;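 also: 0% = median plate neutral-control signal and 100% = twice that signal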
#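 Material: SR-BI-overexpressing, LDLR-lacking CHO cells | Dosing: Single compound concentration, delivered by pin transfer | Probe or stimulus: Labelled HDL, 10 µg/mL | Signal: Bottom-read cell fluorescence after medium removal, ex 550/em 595 nm | Schedule: 3 h, 37 °C | Evaluation: HDL uptake via cellular fluorescence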
# UUG fidelity = modulators of yeast start codon fidelity, primary screen, whole organism, S. cerevisiae, single point, plate reader | S. cerevisiae UUG-firefly luciferase reporter, luminescence/redox ratio | activity score, % at 18.7 µM | hit rate 0.13% among 350,000;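 active = replicate mean at a twofold rise or more, about +100% in these data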;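 note: firefly luciferase made from a UUG start codon reports start codon fidelity; reporter light over untreated wells divided by growth signal over untreated wells; some hits fall short of that in this replicate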
# SR-BI DiI inh = inhibitors of SR-BI mediated HDL lipid uptake, primary screen, ldlA[mSR-BI] cells, fluorescence, single point; 320,000 tested, 0.96% active; AID 488896, 2010; ldlA[mSR-BI] CHO cells, DiI-HDL uptake fluorescence, 3 h; inhibition, % at 12.5 µM;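 active = mean replicate inhibition of at least 70% and a set share of replicates each scoring 70 or more; inconclusive = meets just one of the two criteria; inactive = fails both criteria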;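 also: 0% = median of neutral control wells and 100% = median of positive control wells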
# * = called active by the depositor; i = inactive; u = inconclusive; x = not tested or not shown.
SMILES,GSIS activator,SR-BI uptake up,UUG fidelity,SR-BI DiI inh
COc1ccccc1NS(=O)(=O)c1cccc(C(=O)N/N=C/c2c(C)nn(-c3ccccc3)c2N2CCCC2)c1,73*,-71,x,u
COc1ccccc1NS(=O)(=O)c1ccc(N/N=C/c2ccccc2OCC(=O)O)c([N+](=O)[O-])c1,-7,-21,5,21
Cc1cc(C(=O)Nc2cccc3c2O[C@@H](CN(C)C(=O)Nc2ccc4c(c2)OCO4)[C@@H](C)CN([C@H](C)CO)C3=O)n(C)n1,10,x,2,x
Cc1ccccc1N(C(=O)c1snc(C(N)=O)c1N)C(C(=O)NC1CCCCC1)c1ccc(O)cc1 (stereo unspecified),-31,x,-9,x
Cc1ccccc1N(C(=O)c1snc(C(N)=O)c1N)C(C)C(=O)NC1CCCCC1 (stereo unspecified),-4,-83,-9,83*
C[C@@H]1CN([C@@H](C)CO)C(=O)c2cc(NC(=O)CCCN(C)C)ccc2O[C@H]1CN(C)Cc1ccncc1,-4,x,x,x
COc1cccc(NC(=O)N2CCN(c3cccc(C)c3C)CC2)c1,x,-71,-7,71*
CCOC(=O)c1[nH]c2ccc(OC)cc2c1NC(=S)N1CCN(c2cccc(C)c2C)CC1,-1,-73,-17,73*
CCOC(=O)c1[nH]c2ccc(OC)cc2c1NC(=S)N1CCN(c2ccc(F)cc2)CC1,-10,-25,x,25
CC(C)[C@@H]1COCc2cnnn2CCC[C@@H](C)C(=O)N1,-1,x,x,x
COc1ccc(Cc2nnc(-c3ccccc3)o2)cc1,46*,x,x,x
O=C(Nc1ccc(Br)cc1)c1cc([N+](=O)[O-])cc([N+](=O)[O-])c1,9,-54,3,54
O=c1c2c([N+](=O)[O-])cc([N+](=O)[O-])cc2sn1Cc1ccccc1,128*,-5,-33,5
O=c1c2c([N+](=O)[O-])cc([N+](=O)[O-])cc2sn1-c1ccc(Br)cc1,x,-79,x,79*
CCCNC(=O)N1CC2(CN(C(=O)c3cccnc3)C2)c2c([nH]c3cc(OC)ccc23)[C@@H]1CO,18,x,x,x

# Looked up by structure from above (six):
SMILES,GSIS activator,SR-BI uptake up,UUG fidelity,SR-BI DiI inh
Cc1cc(C(=O)Nc2cccc3c2O[C@@H](CN(C)C(=O)Nc2ccc4c(c2)OCO4)[C@@H](C)CN([C@H](C)CO)C3=O)n(C)n1,10,x,2,x
O=c1c2c([N+](=O)[O-])cc([N+](=O)[O-])cc2sn1-c1ccc(Br)cc1,x,-79,x,79*
COc1ccccc1NS(=O)(=O)c1cccc(C(=O)N/N=C/c2c(C)nn(-c3ccccc3)c2N2CCCC2)c1,73*,-71,x,u
Cc1ccccc1N(C(=O)c1snc(C(N)=O)c1N)C(C(=O)NC1CCCCC1)c1ccc(O)cc1 (stereo unspecified),-31,x,-9,x
Cc1ccccc1N(C(=O)c1snc(C(N)=O)c1N)C(C)C(=O)NC1CCCCC1 (stereo unspecified),-4,-83,-9,83*
O=C(Nc1ccc(Br)cc1)c1cc([N+](=O)[O-])cc([N+](=O)[O-])c1,9,-54,3,54

# Remaining list, next part.
SMILES,GSIS activator,SR-BI uptake up,UUG fidelity,SR-BI DiI inh
COc1ccc(OC)c(CCNC(=O)C(=O)Nc2ccc3nc4n(c(=O)c3c2)CCCCC4)c1,4,-77,-8,77*
Cc1ccccc1OCC(=O)NC(=S)Nc1ccc(N2CCOCC2)c(Cl)c1,x,867*,5,i
COC(=O)c1cccc(NC(=O)Cc2nc(-c3ccccc3)sc2-c2ccc(C)cc2)c1,-33,-71,x,71*
COc1cccc(NC(=O)Cc2nc(-c3ccccc3)sc2-c2ccc(C)cc2)c1,-2,-86,0,86*
O=C(Nc1cccc([N+](=O)[O-])c1)c1cc2ccccc2cc1O,11,-129,-23,129*
Cc1c(C(=O)Nc2cccc([N+](=O)[O-])c2)csc1-c1ccccc1,x,-89,-19,89*
COc1ccc2c3c([nH]c2c1)[C@@H](CO)N(C(=O)Nc1ccc(F)cc1)CC31CN(CC2CC2)C1,-26,x,x,x
CC(C)NC(=O)N(C)C[C@H]1Oc2cc(C#CC(C)(C)O)ccc2S(=O)(=O)N([C@H](C)CO)C[C@@H]1C,19,x,-3,x
NNC(=O)c1cc2c(s1)-c1cc(Cl)ccc1SC2,-5,-99,-7,99*
O=C([C@H]1[C@H](CO)[C@H]2Cn3c(cccc3=O)[C@H]2N1C(=O)CC1CC1)N1CCCCC1,2,x,x,x
Oc1ccc(Nc2nc3ccccc3nc2Nc2ccc(O)cc2)cc1,x,-90,-32,90*
CCOc1ccccc1NC(=O)C1C2CCC3C(CCC21)C3(Cl)Cl (stereo unspecified),20,-73,x,73*
COc1ccc2c3c(n(C)c2c1)[C@@H](CO)N(C(=O)c1cccc(F)c1)CC31CCN(CC2CC2)CC1,6,x,x,x
CO[C@@H]1CN(C)C(=O)c2cc(NC(=O)c3cc(C)on3)ccc2OC[C@H](C)N(CC2CC2)C[C@@H]1C,-11,x,x,x
COc1cccc(C(=O)NNC2=C(C(=O)C(F)(F)F)CCC2)c1,x,-113,-11,113*
O=C(NNC1=C(C(=O)C(F)(F)F)CCC1)c1ccccc1O,x,-150,x,150*
O=C(NNC1=C(C(=O)C(F)(F)F)CCC1)c1ccc(Br)cc1,11,-105,-23,105*
Nc1ccccc1C(=O)NNC1=C(C(=O)C(F)(F)F)CCC1,x,-98,-9,98*
CC(C)NC(=O)N(C)C[C@H]1Oc2cc(C#CC3CC3)ccc2S(=O)(=O)N([C@@H](C)CO)C[C@H]1C,-8,x,9,x
C[C@@H]1CN([C@H](C)CO)C(=O)c2cc(NC(=O)NC3CCCCC3)ccc2O[C@@H]1CN(C)Cc1ccc(C(=O)Nc2ccccc2N)cc1,10,x,x,x
CCCC(=O)N1CC2(CCN(C(=O)CC3CC3)CC2)c2c(n(C)c3cc(OC)ccc23)[C@@H]1CO,1,x,x,x
CC(Oc1cc2oc(=O)c3c(c2cc1Cl)CCC3)C(=O)NCc1cccnc1 (stereo unspecified),11,-86,-18,86*
O=C(O)COc1ccc2c3c(c(=O)oc2c1)CCC3,131*,18,-1,-18
CC(Oc1ccc2c3c(c(=O)oc2c1)CCCC3)C(=O)NCc1cccnc1 (stereo unspecified),48*,29,-15,-29
CC(Oc1cc2oc(=O)c3c(c2cc1Cl)CCCC3)C(=O)NCc1cccnc1 (stereo unspecified),-2,-10,-18,10
C[C@H](CO)N1C[C@H](C)[C@H](CN(C)C(=O)NC2CCCCC2)Oc2ccc(NC(=O)CCCCCC(=O)Nc3ccccc3N)cc2CC1=O,-5,x,1,x
C[C@H](CO)N1C[C@H](C)[C@@H](CN(C)C(=O)Nc2ccc(C(F)(F)F)cc2)Oc2ccc(N(C)C)cc2CC1=O,-29,x,20,x
O=C(c1ccccc1F)N1CCCC(N2CCN(Cc3ccc4c(c3)OCO4)CC2)C1 (stereo unspecified),47*,x,-7,x
CCOc1cccc(/C=N/NC(=S)Nc2ccccc2[N+](=O)[O-])c1O,3,-128,-42,128*
CCCCNC(=S)N/N=C/c1cccc(OCC)c1O,18,-3,-30,3
O=C(OCn1ncc(Br)c(Br)c1=O)c1ccc(F)cc1,x,x,-10,x
O=C(OCn1ncc(Br)c(Br)c1=O)c1ccccc1Cl,115*,9,-16,-9
Cc1c(NC(=O)/C(C#N)=C/c2ccc(-c3cccc(Cl)c3)o2)c(=O)n(-c2ccccc2)n1C,-42,-62,x,62
Cc1c(NC(=O)/C(C#N)=C/c2ccc(-c3ccc(Cl)c(Cl)c3)o2)c(=O)n(-c2ccccc2)n1C,-9,-74,x,74*
C=CCOC(=O)C1=C(C)NC(SCC)=C(C#N)C1c1ccc(Cl)cc1 (stereo unspecified),x,-83,-17,83*
C/C=C/c1ccc([C@@H]2[C@H](CO)N(C(C)=O)C23CN(C(=O)c2cnccn2)C3)cc1,7,x,x,x

# Bioassay records from PubChem.
